Reference: publication PMC12044326 (Clinical Pharmacology in Drug Development, 2025)

Chains of the proteins cited; added tags and fusions are not shown. Residues count along the entry.
UniProt P08684, 2-503: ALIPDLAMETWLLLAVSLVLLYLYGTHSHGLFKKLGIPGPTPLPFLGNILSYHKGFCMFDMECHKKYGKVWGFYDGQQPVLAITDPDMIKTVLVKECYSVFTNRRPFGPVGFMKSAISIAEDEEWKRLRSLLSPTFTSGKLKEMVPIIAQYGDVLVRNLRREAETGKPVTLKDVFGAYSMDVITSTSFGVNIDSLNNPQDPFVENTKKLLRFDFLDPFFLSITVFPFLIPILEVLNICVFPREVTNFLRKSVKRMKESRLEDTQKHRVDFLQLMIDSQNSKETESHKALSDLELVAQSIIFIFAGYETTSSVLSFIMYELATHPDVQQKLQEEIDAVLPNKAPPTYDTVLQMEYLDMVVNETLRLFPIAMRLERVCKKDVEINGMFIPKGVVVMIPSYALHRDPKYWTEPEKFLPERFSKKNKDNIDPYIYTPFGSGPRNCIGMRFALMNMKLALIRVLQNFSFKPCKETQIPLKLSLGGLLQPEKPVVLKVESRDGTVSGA

Molecular target: CYP3A4 (Homo sapiens, UniProt P08684)
Assay: in vitro
Details: both, pH 7.4

Structure (SMILES): O=C(c1cccnc1-c1ccncc1)N1CCC(O)(Cc2ccccc2)CC1 [Soticlestat]
- Ki at 5 min: 12.4 µM
